Source: patent US12662465B2, “EGFR inhibitors” (Blueprint Medicines Corporation, priority 2021, dated 2026)

The chains behind the UniProt entries cited, without tags or fusion partners. Where a name states a change or a piece, a line headed by the entry shows the natural chain unless it says otherwise. Residues count along the entry.
UniProt P00533, 25-1210 L858R limits assumed: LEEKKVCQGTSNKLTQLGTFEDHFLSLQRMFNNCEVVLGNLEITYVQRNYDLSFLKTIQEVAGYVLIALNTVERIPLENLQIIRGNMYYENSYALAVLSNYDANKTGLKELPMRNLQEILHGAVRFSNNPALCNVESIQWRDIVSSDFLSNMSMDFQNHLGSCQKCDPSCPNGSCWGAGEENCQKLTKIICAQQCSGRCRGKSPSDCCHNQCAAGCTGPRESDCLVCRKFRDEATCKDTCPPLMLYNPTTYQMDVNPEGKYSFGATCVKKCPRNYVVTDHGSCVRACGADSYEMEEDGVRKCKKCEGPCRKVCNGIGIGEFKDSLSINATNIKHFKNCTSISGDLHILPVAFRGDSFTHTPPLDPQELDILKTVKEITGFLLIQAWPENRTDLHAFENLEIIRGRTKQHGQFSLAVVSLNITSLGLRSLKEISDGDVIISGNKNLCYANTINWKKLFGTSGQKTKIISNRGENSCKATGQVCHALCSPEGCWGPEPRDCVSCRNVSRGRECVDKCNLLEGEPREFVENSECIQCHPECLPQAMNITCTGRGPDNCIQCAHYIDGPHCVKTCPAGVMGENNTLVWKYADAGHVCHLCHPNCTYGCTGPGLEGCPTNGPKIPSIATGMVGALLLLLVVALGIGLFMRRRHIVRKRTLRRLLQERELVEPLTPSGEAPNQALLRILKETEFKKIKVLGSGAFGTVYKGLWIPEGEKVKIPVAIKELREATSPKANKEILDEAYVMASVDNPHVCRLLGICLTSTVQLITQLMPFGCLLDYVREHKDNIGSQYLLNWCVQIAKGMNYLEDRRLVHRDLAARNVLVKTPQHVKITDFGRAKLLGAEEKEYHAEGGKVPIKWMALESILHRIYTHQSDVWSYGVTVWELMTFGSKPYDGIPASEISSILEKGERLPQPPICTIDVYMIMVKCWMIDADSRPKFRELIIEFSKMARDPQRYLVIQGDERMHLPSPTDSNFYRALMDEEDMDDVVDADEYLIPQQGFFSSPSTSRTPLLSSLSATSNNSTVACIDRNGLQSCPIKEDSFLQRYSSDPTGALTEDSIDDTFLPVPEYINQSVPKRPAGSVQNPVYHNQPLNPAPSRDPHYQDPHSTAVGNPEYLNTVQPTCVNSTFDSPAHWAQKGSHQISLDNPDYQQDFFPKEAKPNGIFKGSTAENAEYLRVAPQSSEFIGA

Legend:
[1] = target: intracellular phosphorylation of EGFR (Tyr1068) in PC-9 cells (Ex19Del) (Homo sapiens, UniProt P00533, DEL746-750); experiment: PC-9 pEGFR AlphaLISA assay; format: cell-based; details: read-out: Ext pEGFR_PC-9 Ex19Del IC50, 4 hours compound incubation
[2] = target: EGFR L858R (Homo sapiens, UniProt P00533, L858R); experiment: Biochemical EGFR inhibition assay (Caliper mobility shift), EGFR L858R; details: read-out: Enz EGFR_L858R IC50; 1.0 mM ATP or ATP Km; room temperature (25° C.)
[3] = target: EGFR (d746-750) (Homo sapiens, UniProt P00533, DEL746-750); experiment: Biochemical EGFR inhibition assay (Caliper mobility shift), EGFR (d746-750); details: read-out: Enz EGFR_Exon19-del746-750 IC50; 1.0 mM ATP or ATP Km; room temperature (25° C.)

IC50 [1] [nM] | IC50 [2] [nM] | IC50 [3] [nM] | SMILES
< 10 | < 10 | < 10 | CN(C)[C@H]1CC[C@@H]1Oc1cc(-c2cnn(C)c2)cc2ncnc(Nc3ccc4ncccc4c3F)c12 (relative stereo)
– | < 10 | < 10 | CN1CC[C@@H](Oc2cc(-c3cnn(C)c3)cc3ncnc(Nc4ccc5ncccc5c4F)c23)[C@H](F)C1 (relative stereo)
< 10 | < 10 | < 10 | C[C@@H](O)[C@@H](C)Oc1cc(-c2cnn(C)c2)cc2ncnc(Nc3ccc4ncccc4c3F)c12 (relative stereo)
< 10 | < 10 | < 10 | C[C@H](O)[C@@H](C)Oc1cc(-c2cnn(C)c2)cc2ncnc(Nc3ccc4ncccc4c3F)c12 (relative stereo)
< 10 | < 10 | < 10 | Cn1cc(-c2cc(O[C@@H]3CC[C@@H]3O)c3c(Nc4ccc5ncccc5c4F)ncnc3c2)cn1 (relative stereo)
< 10 | < 10 | < 10 | CC(Oc1cc(-c2cnn(C)c2)cc2ncnc(Nc3ccc4ncccc4c3F)c12)C(=O)N(C)C (single isomer, unassigned)
< 10 | < 10 | < 10 | CC(Oc1cc(-c2cnn(C)c2)cc2ncnc(Nc3ccc4ncccc4c3F)c12)C(=O)N1CCOCC1 (single isomer, unassigned)
< 10 | < 10 | < 10 | CCC(Oc1cc(-c2cnn(C)c2)cc2ncnc(Nc3ccc4ncccc4c3F)c12)C1COC1 (single isomer, unassigned)

SMILES | IC50 [1] [nM] | IC50 [2] [nM] | IC50 [3] [nM]
C[C@@H](Oc1cc(-c2cnn(C)c2)cc2ncnc(Nc3ccc4ncccc4c3F)c12)C1CCOC1 (single isomer, unassigned) | < 10 | < 10 | < 10
